Activity calls are given as the source filed them.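 Rule for the calls: active = caspase luminescence falls with dose and the half-maximal concentration AC50 from the fitted curve is at or below a set limit; inconclusive = flat fit at 30 to 70% signal loss, or invalid fit; inactive = AC50 above the limit, or signal rises instead.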

This experiment relates to INS-1E cytokine-induced caspase-3/7, Caspase-Glo luminescence, 48 h. As to the kind of experiment: inhibitors of cytokine-induced caspase-3/7 activity, dose response, orthogonal assay for beta-cell apoptosis protection project, INS-1E rat cells, luminescence (AID 463206).

For orientation: AC50 means the concentration at which the activity in the assay is half-maximal. On to `CC[n+]1c(/C=C/N(C)c2ccccc2)oc2ccccc21`, for which the AC50 is inactive: > 26 µM.

Source of the values: PubChem BioAssay AID463206 (Broad Institute, 2010).
